{"source": "PubChem BioAssay AID602313", "about": "(National Center for Advancing Translational Sciences (NCATS), 2012)", "note": "“And” between values parts separate entries of the source, which are not always exact repeats. Identical values can stand only once. The entries are a selection whose mix differs from that of the whole data set. Some results for these compounds are left out of this collection, so the calls shown say nothing about other tests. The source made the active and inactive calls. Calls come from the whole dose curve; as a rule, active = well fitted inhibition curve with a large enough effect; inconclusive = small, poorly fitted or top-dose-only effect; inactive = flat fitted curve, though single readings scatter."}
{"assay": "qHTS for Inhibitors of Vif-A3F Interactions: qHTS; note: % of control where 0% means no effect; nearly all actives have a fitted effect of over 65% in size", "conditions": "HeLa A3F-eYFP + Vif (tagged APOBEC3F with the HIV-1 protein that degrades it), YFP fluorescence increase; at 46.1 µM (top of the series)", "source_text": "The recent discovery and characterization of host restriction factors, which provide a potent defense to invading retroviruses, has provided new targets for antiviral drug development. APOBEC3G (A3G) and APOBEC3F (A3F) are potent cytidine deaminases that block HIV-1 replication; HIV-1 expresses the Vif protein, which counteracts A3G and A3F by binding to them and inducing their proteasomal degradation. The Vif-A3G and Vif-A3F interactions provide two potential targets for development of small molecules which can interfere with the ability of Vif to degrade A3G or A3F. […] To identify inhibitors that can interfere with Vif mediated degradation of A3G and A3F, we have developed Hela cell lines that stably express A3G or A3F tagged with eYFP at the C-terminal end (A3G-eYFP or A3F-eYFP, respectively) and Vif. In the absence of an inhibitor, Vif induces degradation of A3G-eYFP and A3F-eYFP, and the cells are not fluorescent. In the presence of an inhibitor, it is expected that Vif will be unable to degrade A3G-eYFP and/or A3F-eYFP, resulting in an increase in yellow fluorescence. In this assays Vif A3F was screened against the Molecular Library Small Molecule Repository (MLSMR). NIH Chemical Genomics Center [NCGC] NIH Molecular Libraries Probe Centers Network [MLPCN] MLPCN Grant: MH093245 Assay Submitter (PI): Vinay Pathak, National Cancer Institute\n5 uL of 700 cells/well of A3F-YFP cells are dispensed into black, clear bottom plates. The plates are incubated overnight at 37 deg C. 23 nL of compounds are added by pintool. The plates are incubated overnight at 37 deg C and then read on the TTP Acumen (Ex 488/ Em 500-530)."}
{"compound": "COc1ccc(C(=O)NCC2(N(C)C)CCCCC2)cc1Cl", "activity, negative = active": "inactive: -4.75%"}
{"compound": "COc1ccc(Cl)cc1C(=O)NCC1(N(C)C)CCCCC1", "activity, negative = active": "inactive: -4.29%"}
{"compound": "COc1cccc(C(=O)NCC2(N3CCCCC3)CCCCC2)c1", "activity, negative = active": "inactive: -5.75%"}
{"compound": "O=C(NCC1(N2CCCCC2)CCCCC1)c1cccc(Cl)c1", "activity, negative = active": "inactive: -2.39%"}
{"compound": "CN(C)C1(CNC(=O)c2ccc(Br)cc2)CCCCC1", "activity, negative = active": "inactive: -2.77%"}
{"compound": "COc1cc(C(=O)NCC2(N(C)C)CCCCC2)c([N+](=O)[O-])cc1OC", "activity, negative = active": "inactive: 0.764%"}
{"compound": "COc1ccc(Br)c(C(=O)NCC2(N3CCCCC3)CCCCC2)c1", "activity, negative = active": "inactive: -3.55%"}
{"compound": "Cc1cccc(C(=O)NCC2(N(C)C)CCCCC2)c1", "activity, negative = active": "inactive: -4.49%"}
{"compound": "COc1cc(C(=O)NCC2(N(C)C)CCCCC2)cc(OC)c1OC", "activity, negative = active": "inactive: 4.39%"}
{"compound": "C=C(C)C#CC(O)(C(=O)OC1CCN(C)CC1)c1ccccc1", "note": "(stereo unspecified)", "activity, negative = active": "inactive: -7.99%"}
{"compound": "CN(C)c1cccc(C(=O)NCC2(N(C)C)CCCCC2)c1", "activity, negative = active": "inactive: 3.06%"}
{"compound": "O=C(OCCN1CCCC1)C(O)(c1ccccc1)c1ccccc1", "activity, negative = active": "inactive: -13.5%"}
{"compound": "CC(C)Oc1ccc(C(=O)NCC2(N(C)C)CCCCC2)cc1", "activity, negative = active": "inactive: -0.746% and inactive: 2.66%"}
{"compound": "O=C(OC1CN2CCC1CC2)C(CO)(c1ccccc1)c1ccccc1", "note": "(stereo unspecified)", "activity, negative = active": "inactive: -8.58%"}
{"compound": "COc1cccc(C(=O)NCC2(N3CCOCC3)CCCCC2)c1", "activity, negative = active": "inactive: 0.61%"}
{"compound": "CC(C)COc1ccc(C(=O)NCC2(N(C)C)CCCCC2)cc1", "activity, negative = active": "inactive: 2.44%"}
{"compound": "CC(C)N1C(=O)CC2(CCN(CCOC(=O)C(O)(c3ccccc3)c3ccccc3)CC2)C1=O", "activity, negative = active": "inactive: -1.8%"}
{"compound": "COc1cc(SC)ccc1C(=O)NCC1(N(C)C)CCCCC1", "activity, negative = active": "inactive: -13.9%"}
{"compound": "CCN(CC)CC(C)C(C)OC(=O)C(O)(c1ccccc1)c1ccccc1", "note": "(stereo unspecified)", "activity, negative = active": "inactive: 5.35%"}
{"compound": "CN(C)C1(CNC(=O)c2cccc(Cl)c2)CCCCC1", "activity, negative = active": "inactive: 0.255%"}
{"compound": "CN(C)C1(CNC(=O)c2ccccc2F)CCCCC1", "activity, negative = active": "inactive: 7.21%"}
{"compound": "Cc1ccc(C(=O)NCC2(N3CCCCC3)CCCCC2)cc1", "activity, negative = active": "inactive: -18.7%"}
{"compound": "O=C(NCC1(N2CCCCC2)CCCCC1)c1cc([N+](=O)[O-])ccc1Cl", "activity, negative = active": "inactive: -4.86%"}
{"compound": "CN1[C@@H]2CC[C@H]1CC(OC(=O)C(O)(c1ccccc1)c1ccccc1)C2", "note": "(stereo partly specified)", "activity, negative = active": "inactive: -1.97%"}
{"compound": "O=C(NCC1(N2CCCCC2)CCCCC1)c1cc(F)c(F)cc1Cl", "activity, negative = active": "inactive: -3.66%"}
{"compound": "C=CCN1CCN(CCOC(=O)C(O)(c2ccccc2)c2ccccc2)CC1", "activity, negative = active": "inactive: -2.23%"}
{"compound": "O=C(NCC1(N2CCCCC2)CCCCC1)c1cccc(Br)c1", "activity, negative = active": "inactive: 11.1%"}
{"compound": "Cc1cc(C(=O)NCC2(N3CCCCC3)CCCCC2)ccc1[N+](=O)[O-]", "activity, negative = active": "inactive: 4.68%"}
{"compound": "CCN1CCCC(OC(=O)C2(O)c3ccccc3C=Cc3ccccc32)C1", "note": "(stereo unspecified)", "activity, negative = active": "inactive: 2.13%"}
{"compound": "CCOc1cccc(C(=O)NCC2(N(C)C)CCCCC2)c1", "activity, negative = active": "inactive: -4.8%"}
{"compound": "COc1ccc(C(=O)NCC2(N(C)C)CCCCC2)cc1", "activity, negative = active": "inactive: -0.907%"}
{"compound": "CN(C)C1CCCC1OC(=O)C(O)(c1ccccc1)c1ccccc1", "note": "(stereo unspecified)", "activity, negative = active": "inactive: 4.86%"}
{"compound": "CN(C)c1ccc(C(=O)NCC2(N(C)C)CCCCC2)cc1", "activity, negative = active": "inactive: 6.76%"}
{"compound": "CN(C)C1(CNC(=O)c2ccccc2[N+](=O)[O-])CCCCC1", "activity, negative = active": "inactive: 4.8%"}
{"compound": "Cc1ccccc1C(=O)NCC1(N2CCCCC2)CCCCC1", "activity, negative = active": "inactive: 0.223%"}
{"compound": "CCCCOc1ccccc1C(=O)NCC1(N(C)C)CCCCC1", "activity, negative = active": "inactive: 0.226%"}
